# PMC11753436
# B1: Tau RD(LM)-CFP [human] / Tau RD(LM)-YFP [human] (parent)
# chain 1: QTAPVPMPDLKNVKSKIGSTENLKHQPGGGKVQIINKKLDLSNVQSKCGSKDNIKHVLGGGSVQIVYKPVDLSKVTSKCGSLGNIHHKPGGGQMEVKSEKLDFKDRVQSKIGSLDNITHVPGGGNKKIETHK
# chain 2: B1 chain 1
# Variants of: B1
# Test: flow cytometry FRET incorporation assay in DS13 cells
# Settings: with Tau RD(LM)-YFP [human]; 24 hours after lentiviral transduction; parent: 190; read off a plot
row,response [MFI],Variant
1,70,chain 1 I34P I65P

# Same assay, conditions: with Tau RD(LM)-YFP [human]; 48 hours after lentiviral transduction; parent: 250; read off a plot
row,response [MFI],Variant
1,70,chain 1 I34P I65P

# Same assay, conditions: with Tau RD(LM)-YFP [human]; 72 hours after lentiviral transduction; parent: 230; read off a plot
row,response [MFI],Variant
1,63,chain 1 I34P I65P
